From patent US20250325676A1, “CAMPTOTHECIN PRODRUG AND PHARMACEUTICAL COMPOSITION THEREOF” (TIANJIN HEMAY ONCOLOGY PHARMACEUTICAL CO., LTD, priority 2022, published 2025)

Columns and labels:
human colon cancer SW620 = conditions: 30 mg/kg i.v. qw × 2; SW620 model, nude mouse
human colon cancer LoVo = conditions: 30 mg/kg i.v. qw × 2; LoVo model, nude mouse
[1] = system: human colon cancer HCT116; experiment: Growth of human colon cancer HCT116 in allogeneic transplantation model; assay type: in vivo, nude mice; conditions: 10 mg/kg i.v. qw × 2, nude mouse
[2] = system: human small cell lung cancer NCI-H446; conditions: 20 mg/kg i.v. qw × 2; NCI-H446 model, nude mouse
[3] = system: human gastric cancer NCI-N87; experiment: Growth of human gastric cancer NCI-N87 in allogeneic transplantation model; assay type: in vivo, nude mice; conditions: 20 mg/kg i.v. qw × 2, nude mouse
Method: The tumor volume was measured 2 to 3 times per week. […] The subcutaneous tumors were peeled and weighed.
The calculation formula of the tumor volume: Volume=0.5×long diameter×short diameter×short diameter.

[4] = system: human pancreatic cancer BxPC-3; experiment: Growth of human pancreatic cancer BxPC-3 in allogeneic transplantation model; assay type: in vivo, nude mice; conditions: 25 mg/kg i.v. qw × 2; BxPC-3 model, nude mouse

| Substance | Final body weight change (%) (human colon cancer SW620) | Final body weight change (%) [1] [%] | Final body weight change (%) [2] [%] | also measured |
| --- | --- | --- | --- | --- |
| 4-amino-6-((E)-(4′-(6-(4-((2-(((S)-4,11-diethyl-4-hydroxy-3,14-dioxy-3,4,12,14-tetrahydro-1H-pyrano[3′,4′:6,7]indolazo[1,2-b]quinolin-9-yl)oxy)methyl)-5-(((2S,3R,4S,5 S,6S)-3,4,5-trihydroxy-6-(methoxycarbonyl)tetrahydro-2H-pyran-2-yl)oxy)phenoxy)methyl)-1H-1,2,3-triazol-1-yl)hexanamido)-3,3′-dimethyl-[1,1′-biphenyl]-4-yl)diazenyl)-5-hydroxynaphthalene-1,3-disulfonate disodium [Example 21] | 6.9 | – | – | Final body weight change (%) (human colon cancer LoVo): −1.6% |
| (2S,3S,4S,5R,6S)-6-(3-((1-(2-(2-(2-((4′-((E)-(8-amino-1-hydroxy-5,7-disulfonicnaphthalen-2-yl)diazenyl)-3,3′-dimethyl-[1,1′-biphenyl]-4-yl)amino)-2-oxoethoxy)ethoxy)ethyl)-1H-1,2,3-triazol-4-yl)methoxy)-4-(((S)-4,11-diethyl-4-hydroxy-3,14-dioxo-3,4,12,14-tetrahydro-1H-pyrano[3′,4′:6,7]indolazino[1,2-b]quinolin-9-yl)oxy)methyl)phe noxy)-3,4,5-trihydroxytetrahydro-2H-pyran-2-carboxylate trisodium [Example 54] | – | −12.5 | 5.8 | – |
| (2S,3S,4S,5R,6S)-6-(3-((1-(2-(2-(2-((4′-((E)-(8-amino-1-hydroxy-5,7-disulfononaphthalen-2-yl)diazenyl)-3,3′-dimethoxy-[1,1′-biphenyl]-4-yl)amino)-2-oxoethoxy)ethoxy)ethyl)-1H-1,2,3-triazol-4-yl)methoxy)-4-(((S)-4,11-diethyl-4-hydroxy-3,14-dioxo-3,4,12,14-tetrahydro-1H-pyrano[3′,4′:6,7]indolazino[1,2-b]quinolin-9-yl)oxy)methyl)phenoxy)-3,4,5-trihydroxytetrahydro-2H-pyran-2-carboxylate trisodium [Example 61] | – | −4.9 | 5.4 | – |
| (2S,3S,4S,5R,6S)-6-(3-((1-(2-((4′-((E)-(8-amino-1-hydroxy-5,7-disulfonicnaphthalen-2-yl)diazenyl)-3,3′-dimethyl-[1,1′-biphenyl]-4-yl)amino)-2-oxoethyl)-1H-1,2,3-triazol-4-yl)methoxy)-4-((((S)-4,11-diethyl-4-hydroxy-3,14-dioxy-3,4,12,14-tetrahydro-1H-pyrano[3′,4′:6,7]indolazino[1,2-b]quinolin-9-yl)oxy)methyl)phenoxy)-3,4,5-trihydroxytetrahydro-2H-pyran-2-carboxylate trisodium [Example 90] | – | −9.5 | – | Final body weight change (%) [3]: 9.0% |
| (2S,3S,4S,5R,6S)-6-(3-((1-(6-((4′-((E)-(8-amino-1-hydroxy-5,7-disulfonicnaphthalen-2-yl)diazenyl)-3,3′-dimethoxy-[1,1′-biphenyl]-4-yl)amino)-6-oxohexyl)-1H-1,2,3-triazol-4-yl)methoxy)-4-(((S)-4,11-diethyl-4-hydroxy-3,14-dioxy-3,4,12,14-tetrahydro-1H-pyrano[3′,4′:6,7]indolizino[1,7]quinolin-9-yl)oxy)methyl)phenoxy)-3,4,5-trihydroxytetrahydro-2H-pyran-2-carboxylate trisodium [Example 69] | 5.8 | – | – | – |
| (2S,3S,4S,5R,6S)-6-(3-((1-(6-((4′-((E)-(8-amino-1-hydroxy-5,7-disulfonicnaphthalen-2-yl)diazenyl)-3,3′-dimethyl-[1,1′-biphenyl]-4-yl)amino)-6-oxohexyl)-1H-1,2,3-triazol-4-yl)methoxy)-4-((((S)-4,11-diethyl-4-hydroxy-3,14-dioxy-3,4,12,14-tetrahydro-1H-pyrano[3′,4′:6,7]indolazino[1,2-b]quinolin-9-yl)oxy)methyl)2-methylphenoxy)-3,4,5-trihydroxytetrahydro-2H-pyran-2-carboxylate trisodium [Example 14] | – | – | 2.4 | – |
| (2S,3S,4S,5R,6S)-6-(3-((1-(6-((4′-((E)-(8-amino-1-hydroxy-5,7-disulfonicnaphthalen-2-yl)diazenyl)-3,3′-dimethyl-[1,1′-biphenyl]-4-yl)amino)-6-oxohexyl)-1H-1,2,3-triazol-4-yl)methoxy)-4-(((S)-4-ethyl-4-hydroxy-3,14-dioxy-3,4,12,14-tetrahydro-1H-pyrano[3′,4′:6,7]indolazino[1,2-b]quinolin-9-yl)oxy)methyl)phenoxy)-3,4,5-trihydroxytetrahydro-2H-pyran-2-carboxylate trisodium [Example 24] | – | – | – | Final body weight change (%) [4]: −0.6% |
| (2S,3S,4S,5R,6S)-6-(3-((1-(6-((4′-((E)-(8-amino-1-hydroxy-5,7-disulfonicnaphthalen-2-yl)diazenyl)-[1,1′-biphenyl]-4-yl)amino)-6-oxohexyl)-1H-1,2,3-triazol-4-yl)methoxy)-4-((((S)-4,11-diethyl-4-hydroxy-3,14-dioxo-3,4,12,14-tetrahydro-1H-pyrano[3′,4′:6,7]indolazino[1,2-b]quinolin-9-yl)oxy)methyl)phenoxy)-3,4,5-trihydroxytetrahydro-2H-pyran-2-carboxylate trisodium [Example 78] | 7.1 | – | – | Final body weight change (%) (human colon cancer LoVo): 3.8% |
| (2S,3S,4S,5R,6S)-6-(3-((1-(8-((4′-((E)-(8-amino-1-hydroxy-5,7-disulfonicnaphthalen-2-yl)diazenyl)-3,3′-dimethyl-[1,1′-biphenyl]-4-yl)amino)-8-oxooctyl)-1H-1,2,3-triazol-4-yl)methoxy)-4-((((S)-4,11-diethyl-4-hydroxy-3,14-dioxy-3,4,12,14-tetrahydro-1H-pyrano[3′,4′:6,7]indolizino[1,2-b]quinolin-9-yl)oxy)methyl)phenoxy)-3,4,5-trihydroxytetrahydro-2H-pyran-2-carboxylate trisodium [Example 40] | 8.5 | – | – | – |
| (2S,3S,4S,5R,6S)-6-(3-((1-(8-((4′-((E)-(8-amino-1-hydroxy-5,7-disulfonicnaphthalen-2-yl)diazenyl)-[1,1′-biphenyl]-4-yl)amino)-8-oxooctyl)-1H-1,2,3-triazol-4-yl)methoxy)-4-((((S)-4,11-diethyl-4-hydroxy-3,14-dioxo-3,4,12,14-tetrahydro-1H-pyrano[3′,4′: 6,7]indolazino[1,2-b]quinolin-9-yl)oxy)methyl)phenoxy)-3,4,5-trihydroxytetrahydro-2H-pyran-2-carboxylate trisodium [Example 47] | 9.7 | – | – | – |
